Assay results reported in patent US20040258623A1, “Insulin-containing oral spray and the preparation method thereof” (priority 2001, published 2004).

Assay: serum insulin pharmacokinetics in normal rabbits by enzyme-linked immunoassay
Assay type: in vivo
Conditions: rabbit, subcutaneous injection, within 30-120 mins, p<0.05
Protocol: 2. Efficiency. The insulin content in vivo in which normal rabbits are used as pharmacological model are determined by enzyme-linked immunoassay. The pharmacokinetic parameter of the insulin buccal spray according to the present invention is calculated. […] The serum concentration is decreased to base level after 46 hrs.

insulin
serum insulin concentration compared with control groups without insulin: significant difference
